Measured values published in patent US5338845A, “Aspergillus species, cyclic dimeric dipeptide derivative substance P antagonist biosynthetic products thereof, and process for preparation thereof” (Sterling Winthrop Inc., priority 1992, dated 1994).

By UniProt entry, the sequences of proteins in these tests, tags left out.
UniProt P30547, whole entry: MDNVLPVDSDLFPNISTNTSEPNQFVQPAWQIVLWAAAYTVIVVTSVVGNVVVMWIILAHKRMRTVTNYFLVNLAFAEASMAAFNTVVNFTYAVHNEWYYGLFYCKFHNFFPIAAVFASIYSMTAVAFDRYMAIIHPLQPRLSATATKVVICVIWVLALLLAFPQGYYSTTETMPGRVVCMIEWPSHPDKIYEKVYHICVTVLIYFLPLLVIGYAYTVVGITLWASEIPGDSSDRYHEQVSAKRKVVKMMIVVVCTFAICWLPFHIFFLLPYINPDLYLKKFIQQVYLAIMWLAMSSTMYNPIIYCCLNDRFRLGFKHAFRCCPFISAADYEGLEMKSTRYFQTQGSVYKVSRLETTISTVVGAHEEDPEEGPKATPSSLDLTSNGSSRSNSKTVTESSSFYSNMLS
UniProt P25103, whole entry: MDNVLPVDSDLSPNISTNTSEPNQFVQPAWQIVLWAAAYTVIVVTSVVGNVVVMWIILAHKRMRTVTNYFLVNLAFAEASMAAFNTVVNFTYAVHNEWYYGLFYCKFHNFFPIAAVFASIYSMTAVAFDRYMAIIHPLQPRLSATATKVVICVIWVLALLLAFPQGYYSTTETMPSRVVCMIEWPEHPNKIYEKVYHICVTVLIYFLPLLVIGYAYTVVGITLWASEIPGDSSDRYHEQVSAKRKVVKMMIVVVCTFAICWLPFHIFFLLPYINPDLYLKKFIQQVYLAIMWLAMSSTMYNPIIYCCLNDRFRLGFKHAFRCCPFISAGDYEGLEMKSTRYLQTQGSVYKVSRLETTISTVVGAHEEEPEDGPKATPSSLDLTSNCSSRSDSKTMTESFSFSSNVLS

How the values were obtained:
NK1 [1] = biological target: NK1 (Cavia porcellus, UniProt P30547); assay: Substance P NK1 receptor binding, tritiated Substance P, guinea pig submaxillary gland tissue; conditions: read-out: Ki Guinea Pig Submaxillary Gland Tissue (Substance P antagonist potency); tritiated Substance P 0.75 nM; Ki calculated from IC50 by Cheng-Prusoff
Description: (§1) As stated above the compounds of Formula I are useful as Substance P antagonists and therefore as analgesic and/or antiinflammatory agents. Substance P antagonist NK1 receptor binding activity was determined using guinea pig submaxillary gland tissue and human astrocytoma cells.
Submaxillary glands from both sexes of Hartley guinea pigs were obtained from Pel Freeze Biologicals, Rogers, Arkansas by overnight express in a plastic bag kept cold in wet ice. Extraneous tissue was removed and the glands were homogenized (Brinkman Polytron 10TS generator, 3-4 10-second bursts at a setting of 10) in ice cold buffer C (sodium chloride, 120 mM; potassium chloride, 5 mM; tromethamine [TRIS], 50 mM; pH adjusted to 7.40 with dilute hydrochloric acid; 100 mL for 50 submaxillary glands). The homogenate was centrifuged (16,000×g) at 4° C. for 15 minutes and the supernatant fluid was discarded. In order to release any native bound Substance P from its receptor approximately 200 mL of buffer B (potassium chloride, 500 mM; tromethamine, 50 mM; ethylenediaminetetraacetic acid [EDTA], 10 mM; pH adjusted to 7.40 with dilute hydrochloric acid) was added to the pellet, which was resuspended by low speed homogenization. The suspension was incubated at ice temperature for 30 minutes with periodic swirling and centrifuged, and the supernatant liquid was discarded. Tromethamine buffer (50 mM, pH adjusted to 7.40 with dilute hydrochloric acid, 200 mL) was added, the pellet was resuspended, the suspended mixture was centrifuged, the supernatant fluid was discarded, and this procedure was repeated. About twice the pellet volume of tromethamine buffer was added to the pellet and the resulting submaxillary gland tissue preparation (1.0 to 1.5 mL) was stored at -70° C. Using serum bovine albumin as the standard the protein yield was determined by the Bradford method (Bio-Rad, Richmond, Calif.) to be 7-8 mg/mL or about 250 mg from 50 submaxillary glands.
To test for receptor binding a sample of the submaxillary gland tissue preparation was thawed on ice and rehomogenized with a glass homogenizer (Dounce). To a polystyrene test tube were added an aliquot of the resulting homogenate (200 μL containing 150-300 μg of protein), tromethamine buffer (100 μL), protease buffer (aqueous chymostatin, 5 μg/mL; leupeptin, 10 μg/mL; bacitracin, 100 μg/mL; manganous chloride, 3 mM; bovine serum albumin, 0.05%; tromethamine, 50 mM; pH adjusted to 7.40 with dilute hydrochloric acid; 100 μL) and tritiated Substance P (44-54 Ci/millimole, 0.75 nM in protease buffer, 100 μL). Dimethylsulfoxide alone (5 μL) or a dimethylsulfoxide solution (5 μL) of the test compound (amount such that 1:100 dilution gave the desired concentration thereof) was added to the tube. The mixture was allowed to reach equilibrium for 20-30 minutes, then filtered (Whatman GF/C filter, Brandel harvester). The residue on the filter was washed three times with tromethamine buffer (3 mL each time) and its radioactivity was measured in a liquid scintillation counter (Beckman LS5000) (x=number of counts per minute with test compound, y=number of counts per minute without test compound). Adding a large excess of untritiated Substance P (1 μM) to the protease buffer and carrying out the procedure without test compound gave a measure (z=number of counts per minute) of the nonspecific binding, which was generally less than 10% of the total binding. The dissociation constant (Kd) for receptor binding was determined by varying the concentration of tritiated Substance P. The following calculations were made:
L=1n(% inhibition/% bound).
Values of L for each test compound were plotted against the corresponding values of the log of the concentration of the test compound, a linear regression line was constructed, and the concentration of the test compound corresponding to L=0, which is defined as the IC50 value, was determined. […]

NK1 [2] = biological target: NK1 (Homo sapiens, UniProt P25103); assay: Substance P NK1 receptor binding, 125I-Bolton Hunter Substance P, human astrocytoma cells (U-373 MG); conditions: read-out: Ki Human Astrocytoma Cells (Substance P antagonist potency), U-373 MG cells, Ki calculated from IC50
Description: as §1
Human astrocytoma cells (U--373 MG, ATCC No. HTB 17) were cultured in 75-mL flasks in an aqueous medium containing horse serum (heat inactivated, 10%), minimum essential amino acids (2%), minimum essential vitamin solution (2%), and an aqueous solution of penicillin (10,000 units/mL) and streptomycin (10,000 μg/mL) (Penn-Strep, 2%), which was sterilized by filtration through a disposable filter (Nalgene, VWR Cat. No. 28199-585). The medium was replaced twice weekly. Cells were passaged (1:4 split) by removing the medium and adding aqueous trypsin (0.25%, 8 mL/flask). The flasks were swirled for 30 seconds, the aqueous trypsin was removed, and the cells were incubated for 5 minutes at room temperature, then washed twice with fresh medium (7 mL each time). Poly-D-lysine solution (50 μg/mL in aqueous phosphate saline buffer, 0.25 mL) was added to each well of a sterile 96-well […] plate (Corning), which was then incubated at room temperature for 40 minutes. The poly-D-lysine solution was removed, each well was washed twice with aqueous phosphate saline buffer (0.25 mL), cells were added (0.2 mL/well), and the plate was incubated at 37° C. for two days in an oxygen-carbon dioxide (95:5) atmosphere to provide a monolayer of 1.4-1.9×10^4 cells per well.
To test for receptor binding the aqueous phosphate saline buffer was removed from each well, the cell monolayer was washed three times with assay buffer (aqueous 2-[4-(2-hydroxyethyl)-1-piperazinyl]ethanesulfonic acid [HEPES], 25 mM; potassium chloride, 5.8 mM; monopotassium phosphate, 2.2 mM; sodium chloride, 115 mM; magnesium sulfate, 0.6 mM; calcium chloride, 1.8 mM; bovine serum albumin, 1%; glucose, 5 mM; thiorphan, 1 μM; and bacitracin, 40 μg/mL; pH adjusted to 7.40 with dilute hydrochloric acid; 0.25 mL each time). To each well was then added assay buffer alone (0.1 mL) or a mixture (0.1 mL) with assay buffer as diluent containing ^125 I-Bolton Hunter Substance P (Amersham, Inc., Arlington Heights, Ill.; 0.1 nanomole) and test compound in amount to give the desired concentration thereof or, to determine nonspecific binding, unlabelled Substance P (0.1 micromole) and the plate was incubated at 25° C. for 90 minutes. Excess assay buffer or Substance P mixture was then removed and each well was washed four times with assay buffer (0.25 mL each time). The cells were detached from each well by addition of aqueous octoxynol (Triton X-100, 0.2%, 140 μL) containing bovine serum albumin (1 mg/L). The radioactivity of part (100 μL) of the detachment mixture was measured in a gamma ray counter (Packard Cobra). Kd and IC50 values were determined and a Ki value was calculated for each test compound as described above.

Row | Structure (SMILES) | Ki (NK1 [1]) [µM] | Ki (NK1 [2]) [µM]
1 | O=C1N[C@@H](Cc2ccccc2)C(=O)N2[C@H]3Nc4cc(F)ccc4[C@@]3([C@]34C[C@H]5C(=O)N[C@@H](Cc6ccccc6)C(=O)N5[C@H]3Nc3cc(F)ccc34)C[C@@H]12 | 1.57 | 0.17
2 | O=C1N[C@@H](Cc2ccccc2)C(=O)N2[C@H]3Nc4ccccc4[C@@]3([C@]34C[C@H]5C(=O)N[C@@H](Cc6cccc(F)c6)C(=O)N5[C@H]3Nc3ccccc34)C[C@@H]12 | 2.56 | 0.38
3 | CC(C)C[C@@H]1NC(=O)[C@@H]2C[C@]3([C@]45C[C@H]6C(=O)N[C@@H](Cc7ccccc7)C(=O)N6[C@H]4Nc4ccccc45)c4ccccc4N[C@@H]3N2C1=O | 4.1 | 3.95
4 | O=C1N[C@@H](Cc2ccccc2F)C(=O)N2[C@H]3Nc4ccccc4[C@@]3([C@]34C[C@H]5C(=O)N[C@@H](Cc6ccccc6F)C(=O)N5[C@H]3Nc3ccccc34)C[C@@H]12 | 5.8 | 0.63

More lines, in order of falling Ki (NK1 [1]), values ahead:

Row | Ki (NK1 [1]) [µM] | Ki (NK1 [2]) [µM] | Structure (SMILES)
5 | 20 | 2.85 | O=C1N[C@@H](Cc2ccccc2)C(=O)N2[C@H]3Nc4ccc(F)cc4[C@@]3([C@]34C[C@H]5C(=O)N[C@@H](Cc6ccccc6)C(=O)N5[C@H]3Nc3ccc(F)cc34)C[C@@H]12
6 | 9.5 | 1.85 | O=C1N[C@@H](Cc2ccccc2)C(=O)N2[C@H]3Nc4ccccc4[C@@]3([C@]34C[C@H]5C(=O)N[C@@H](Cc6ccccc6)C(=O)N5[C@H]3Nc3ccc(F)cc34)C[C@@H]12
7 | 3.2 | 2.05 | CC=CC[C@@H]1NC(=O)[C@@H]2C[C@]3([C@]45C[C@H]6C(=O)N[C@@H](Cc7ccccc7)C(=O)N6[C@H]4Nc4ccccc45)c4ccccc4N[C@@H]3N2C1=O
8 | 2.27 | 0.26 | O=C1N[C@@H](Cc2ccccc2)C(=O)N2[C@H]3Nc4ccccc4[C@@]3([C@]34C[C@H]5C(=O)N[C@@H](Cc6ccccc6)C(=O)N5[C@H]3Nc3cc(F)ccc34)C[C@@H]12
